Measured values taken from PubChem BioAssay AID504803 (The Scripps Research Institute Molecular Screening Center, 2011).
The list shows a part of the results, in another mix than the full data. Some salts and complexes are drawn in separate pieces, as the source files them; their charges need not balance. Active and inactive are the calls of the source. No stated cut-off is given here; in the data, active means inhibition above about 36%; inactive means the rest.

The chains behind the UniProt entries cited, without tags or fusion partners.
UniProt Q92743, whole entry: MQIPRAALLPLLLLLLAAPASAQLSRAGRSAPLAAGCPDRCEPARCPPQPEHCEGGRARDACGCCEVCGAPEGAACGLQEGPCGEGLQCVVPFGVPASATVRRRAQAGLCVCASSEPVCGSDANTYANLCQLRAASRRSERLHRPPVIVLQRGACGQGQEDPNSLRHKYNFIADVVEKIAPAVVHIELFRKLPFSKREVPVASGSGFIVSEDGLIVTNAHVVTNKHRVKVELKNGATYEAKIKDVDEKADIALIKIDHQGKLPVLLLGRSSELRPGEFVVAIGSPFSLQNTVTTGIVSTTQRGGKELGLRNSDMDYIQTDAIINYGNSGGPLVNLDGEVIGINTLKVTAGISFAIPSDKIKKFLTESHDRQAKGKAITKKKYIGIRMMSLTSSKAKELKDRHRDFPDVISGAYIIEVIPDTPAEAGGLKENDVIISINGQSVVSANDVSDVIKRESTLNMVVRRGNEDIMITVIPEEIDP

target: Serine protease HTRA1 (Homo sapiens) (UniProt Q92743); experiment: inhibition of human HTRA1 peptidase – biochemical, fluorescence polarization, HTS, primary screen (AID 504803); conditions: recombinant HTRA1, FP-rhodamine activity-based probe, at 5.96 µM, hits give high values;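 further: 0% = enzyme with DMSO and 100% = wells lacking enzyme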

SMILES	inhibition
CP(=S)(Nn1cnnc1)Oc1ccccc1 (configuration not stated)	inactive: 0.25%
COc1ccccc1OP(C)(=O)Nc1ccccc1 (configuration not stated)	inactive: 3.99%
CP(=O)(Nc1ccccc1Br)Oc1ccccc1 (configuration not stated)	inactive: 15.8%
Cc1cccc(C)c1OP(C)(=O)Nc1ccc(SC(F)(F)F)cc1 (configuration not stated)	inactive: 3.22%
Cc1ccc(Nc2c([N+](=O)[O-])cc([N+](=O)[O-])cc2[N+](=O)[O-])cc1	inactive: 28.8%
CP(=O)(Oc1ccccc1)OC(c1ccccc1)C(F)(F)F (configuration not stated)	inactive: -6.42%
CCc1ccc(OP(C)(=O)N2CCN(c3ccc([N+](=O)[O-])cc3)CC2)cc1 (configuration not stated)	inactive: -7.24%
CP(=O)(NC(=O)Nc1ccccc1)Oc1ccccc1 (configuration not stated)	inactive: 0.29%
Cc1cc(C)cc(OP(C)(=O)Nc2ccc(SC(F)(F)F)cc2)c1 (configuration not stated)	inactive: -32.1%
CCOP(C)(=S)SCC(=O)NC(C)C(=O)O (configuration not stated)	inactive: 1.27%
CCOC(=O)c1ccc(NP(C)(=O)Oc2ccc(OC)cc2)cc1 (configuration not stated)	inactive: 3.14%
CP(=O)(Nc1ccccn1)Oc1ccc(Cl)cc1 (configuration not stated)	inactive: -2.05%
CCN(CC)CCCOC(=O)C(O)(c1ccccc1)c1ccccc1	inactive: -5.66%
O=[N+]([O-])c1cc([N+](=O)[O-])c(Nc2cccnc2)c([N+](=O)[O-])c1	inactive: 8.37%
CC(C)(C)c1ccc(OP(C)(=O)Nc2ccc(SC(F)(F)F)cc2)cc1 (configuration not stated)	inactive: -35%
Cc1cccc(C)c1OP(C)(N)=O (configuration not stated)	inactive: -1.65%
O=[N+]([O-])c1ccc2c(c1)C=Nc1ccccc1O2	inactive: 2.18%
CCOC(=O)c1ccc(NP(C)(=O)Oc2ccccc2)cc1 (configuration not stated)	inactive: 8.23%
COc1ccccc1OP(C)(=O)Nc1ccc(C)cc1 (configuration not stated)	inactive: -4.77%
Cc1ccc(NP(C)(=O)Oc2ccccc2)c(C)c1 (configuration not stated)	inactive: -4.29%
COc1ccccc1OP(C)(=O)Nc1cc(Cl)ccc1C (configuration not stated)	inactive: -3.28%
COc1ccc(OP(C)(=O)Nc2cccc(F)c2)cc1 (configuration not stated)	inactive: -6.87%
Cc1cc(C)cc(OP(C)(N)=O)c1 (configuration not stated)	inactive: 4.79%

SMILES	inhibition
O=C(O)c1cccc(Nc2c([N+](=O)[O-])cc([N+](=O)[O-])cc2[N+](=O)[O-])c1	inactive: -0.6%
CC1=NCCc2c1[nH]c1ccccc21.O=[N+]([O-])c1cc([N+](=O)[O-])c(O)c([N+](=O)[O-])c1	inactive: 3.13%
COc1ccccc1OP(C)(=O)Nc1cccc(Br)c1 (configuration not stated)	inactive: -5.74%
Cc1cc(C)cc(OP(C)(=O)Nc2ccc(C)cc2C)c1 (configuration not stated)	inactive: -4.46%
CCOC(=O)c1ccc(NP(C)(=O)Oc2cc(C)cc(C)c2)cc1 (configuration not stated)	inactive: -8.73%
CP(=O)(Nc1cccc(Br)c1)Oc1ccccc1 (configuration not stated)	inactive: 1.01%
Cc1cc(C)cc(OP(C)(=O)Nc2ccccn2)c1 (configuration not stated)	inactive: -0.92%
Cc1ccc(C)c(NP(C)(=O)Oc2ccccc2)c1 (configuration not stated)	inactive: 2.87%
O=[N+]([O-])c1cc([N+](=O)[O-])c(-n2nnc3ccccc32)c([N+](=O)[O-])c1	inactive: -10.5%
O=[N+]([O-])c1cc([N+](=O)[O-])c(-c2cnn(-c3ccccc3)c2)c([N+](=O)[O-])c1	inactive: 7.61%
Cc1nc2ccc3ccccc3c2s1.O=[N+]([O-])c1cc([N+](=O)[O-])c(O)c([N+](=O)[O-])c1	inactive: -5.62%
O=[N+]([O-])c1cc([N+](=O)[O-])c(Nc2nnnn2CCO)c([N+](=O)[O-])c1	inactive: -6.7%
CC1=C2N=C(C=C3N=C(C(C)=C4[N-][C@@](C)([C@@H]5N=C1[C@](C)(CCC(=O)NC[C@@H](C)OP(=O)([O-])O[C@H]1[C@@H](O)[C@@H](n6cnc7cc(C)c(C)cc76)O[C@@H]1CO)[C@H]5CC(N)=O)[C@@](C)(CC(N)=O)[C@@H]4CCC(N)=O)[C@@](C)(CC(N)=O)[C@@H]3CCC(N)=O)C(C)(C)[C@@H]2CCC(N)=O.[C-]#N.[Co+3]	inactive: 0.35%
CCOC(=O)C(CC)C1=NC(C)(C)Cc2ccccc21.O=[N+]([O-])c1cc([N+](=O)[O-])c(O)c([N+](=O)[O-])c1 (configuration not stated)	inactive: 3.14%
COc1ccccc1OP(C)(=O)Nc1c(C)cccc1C (configuration not stated)	inactive: 5.39%
CN1CCCCC1COC(=O)C1(O)c2ccccc2CCc2ccccc21 (configuration not stated)	inactive: -3.12%
CP(=O)(Nc1ccc(SC(F)(F)F)cc1)Oc1ccccc1 (configuration not stated)	inactive: -2.4%
CCCOc1ccc(NP(C)(=O)Oc2ccc(Cl)cc2)cc1 (configuration not stated)	inactive: -5.89%
COc1ccc(OP(C)(=O)Nc2cccc(Br)c2)cc1 (configuration not stated)	inactive: -2.76%
COc1ccc(NP(C)(=O)Oc2ccccc2OC)cc1 (configuration not stated)	inactive: -1.46%
CN(C)CCOC(=O)C(O)(c1ccccc1)C1CCCCC1 (configuration not stated)	inactive: 5.34%
O=[N+]([O-])c1cc([N+](=O)[O-])c(NCC2CCS(=O)(=O)C2)c([N+](=O)[O-])c1 (configuration not stated)	inactive: 1.99%
Cc1cc(-c2cccc3ccccc23)c(C)cn1.O=[N+]([O-])c1cc([N+](=O)[O-])c(O)c([N+](=O)[O-])c1	inactive: -15.7%

SMILES	inhibition
O=[N+]([O-])c1ccc(OP2(=O)COCCO2)cc1 (configuration not stated)	inactive: 3.95%
Cc1c(C(c2ccc3c(c2)OCO3)c2c(C)n(C)n(-c3ccccc3)c2=O)c(=O)n(-c2ccccc2)n1C.O=[N+]([O-])c1cc([N+](=O)[O-])c(O)c([N+](=O)[O-])c1	inactive: 1.07%
CP(=O)(Nc1ccc(SC(F)(F)F)cc1)Oc1ccc(F)cc1 (configuration not stated)	inactive: -6.09%
CCOP(C)(=S)SCC(=O)NC(C)(CC)C(=O)O (configuration not stated)	inactive: -0.79%
CP(=O)(Nc1ccc2c(c1)OCCO2)Oc1ccccc1 (configuration not stated)	inactive: -4.64%
Cc1ccccc1NP(C)(=O)Nc1ccccc1C	inactive: -6.32%
O=[N+]([O-])c1cc([N+](=O)[O-])c(Nc2ccc(Cl)cc2)c([N+](=O)[O-])c1	inactive: 14.4%
CC(C)c1ccc(OP(C)(=O)Nc2ccc(SC(F)(F)F)cc2)cc1 (configuration not stated)	inactive: -29%
CP(=O)(Nc1ccccc1F)Oc1ccccc1 (configuration not stated)	inactive: -1.36%
O=C(OCCN1CCN(CCOCc2ccccc2)CC1)C(O)(c1ccccc1)c1ccccc1	inactive: 6.39%
O=C(OC1CN2CCC1CC2)c1ccc([N+](=O)[O-])cc1 (configuration not stated)	inactive: 9.43%
COc1ccc2c(c1O)-c1c(O)c(OC)cc3c1[C@H](C2)[N+](C)(C)CC3.O=[N+]([O-])c1cc([N+](=O)[O-])c([O-])c([N+](=O)[O-])c1[O-]	inactive: -1.2%
COc1ccc(OP(C)(=O)Nc2ccc(SC(F)(F)F)cc2)cc1 (configuration not stated)	inactive: -20.1%
CCOC(=O)c1ccc(NP(C)(=O)Oc2ccc(F)cc2)cc1 (configuration not stated)	inactive: 3.54%
CCN(CC)CCCOC(=O)C(O)(c1ccccc1)C1CCCCC1 (configuration not stated)	inactive: 19.8%
Cc1c([N+](=O)[O-])cc([N+](=O)[O-])c(Br)c1[N+](=O)[O-]	inactive: 0.57%
O=[N+]([O-])c1cc([N+](=O)[O-])c(OC2CCCCC2O)c([N+](=O)[O-])c1 (configuration not stated)	inactive: -20.5%
CCCCCOc1ccc(NP(C)(=O)Oc2ccc(Cl)cc2Cl)cc1 (configuration not stated)	inactive: -31.2%
CP(=O)(Nc1ccccc1)Oc1ccc(F)cc1 (configuration not stated)	inactive: -1.68%
O=C1C(O)=C([N+](=O)[O-])C(=O)C(O)=C1[N+](=O)[O-]	inactive: 2.46%
Cc1cc(C)cc(OP(C)(=O)Nc2cccc(C(F)(F)F)c2)c1 (configuration not stated)	inactive: -8.35%
COc1ccc(OP(C)(=O)Nc2ccccc2Br)cc1 (configuration not stated)	inactive: -4.77%
COc1ccccc1OP(C)(=O)Nc1ccc(C)c(C)c1 (configuration not stated)	inactive: -1.84%

SMILES	inhibition
CP(=O)(OCCOc1ccccc1)OCCOc1ccccc1	inactive: 5.95%
CP(=O)(Nc1ccc(Cl)cc1Cl)Oc1ccccc1 (configuration not stated)	inactive: 0.77%
CCCCCCCCCCCCCCCC1C[N+](C)(C)CCOP(C)(=O)O1 (configuration not stated)	active: 74.7%
COc1ccccc1OP(C)(=O)Nc1ccc(Br)cc1 (configuration not stated)	inactive: -3.35%
CN(C)CCOC(=O)C(O)(c1ccccc1)C1CCCC1 (configuration not stated)	inactive: 16.5%
COc1ccc(OP(C)(=O)Nc2ccccn2)cc1 (configuration not stated)	inactive: 1.19%
O=[N+]([O-])c1cc([N+](=O)[O-])c(Nc2ccccn2)c([N+](=O)[O-])c1	inactive: 2.07%
Cc1c(NP(C)(=O)Oc2ccc(C(C)C)cc2)c(=O)n(-c2ccccc2)n1C (configuration not stated)	inactive: 1.47%
CCc1ccc(OP(C)(=O)O)cc1	inactive: -1.33%
CP(=O)(Nc1ccccn1)Oc1ccccc1 (configuration not stated)	inactive: 5.56%
COc1ccccc1OP(C)(=O)Nc1ccc(C)cc1C (configuration not stated)	inactive: -0.77%
CCN(CC)CC(O)COC(=O)C(O)(c1ccccc1)C1CCCCC1 (configuration not stated)	inactive: -2.28%
COc1ccc(OP(C)(=O)Nc2ccc(Br)cc2)cc1 (configuration not stated)	inactive: 4.65%
CP(=O)(Oc1ccccc1)N1CCOC1=O (configuration not stated)	inactive: 5.76%
CCc1ccc(OP(C)(=O)Nc2cccnc2)cc1 (configuration not stated)	inactive: 5.65%
COc1ccccc1OP(C)(=O)Nc1c(C)n(C)n(-c2ccccc2)c1=O (configuration not stated)	inactive: 2.08%
O=C(OCCCN1CCCC1)C(O)(c1ccccc1)C1CCCCC1 (configuration not stated)	inactive: 5.72%
CP(=O)(Nc1ccc(Cl)cc1)Oc1ccc(F)cc1 (configuration not stated)	inactive: -13.1%
CC(C)(C)c1ccc(OP(C)(=O)O)cc1	inactive: 10.1%
COc1ccccc1OP(C)(=O)Nc1ccccc1Br (configuration not stated)	inactive: 0.4%
CN(C)C(=O)c1c([N+](=O)[O-])cc([N+](=O)[O-])cc1[N+](=O)[O-]	inactive: -14.8%
CP(=O)(OC12CC3CC(CC(C3)C1)C2)OC12CC3CC(CC(C3)C1)C2	inactive: -6.01%
CCOC(=O)c1ccc(NP(C)(=O)Oc2ccc(Cl)cc2)cc1 (configuration not stated)	inactive: -3.46%
